## Measured affinities in a library of Ab-14 heavy chain variants

The target is the same throughout: PDVDLGDISGINAS, from the HR2 region of SARS-CoV-2 spike.

Each scFv is VH, three GGGGS repeats, VL, as in the parent Ab-14, and differs from it in the CDRs of the heavy chain only.
VH: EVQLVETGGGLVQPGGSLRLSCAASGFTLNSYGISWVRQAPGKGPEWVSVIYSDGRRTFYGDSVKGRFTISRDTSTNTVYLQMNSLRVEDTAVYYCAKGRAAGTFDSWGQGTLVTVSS
VL: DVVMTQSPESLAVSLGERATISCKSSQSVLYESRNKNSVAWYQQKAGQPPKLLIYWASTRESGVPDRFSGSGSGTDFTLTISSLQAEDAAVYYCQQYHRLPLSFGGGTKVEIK

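The parent was found by panning a naive human phage display library on the peptide. These sequences belong to a second round, designed from the earlier measurements on random variants of the parent. Several design methods are mixed in this list. The scFvs were displayed on barcoded MATa yeast, the peptide on MATalpha yeast. Pairs that bind mate more often; barcode pairs of the diploids are counted by sequencing. The ratio of observed to expected reads was calibrated, replicate by replicate, on BCL2-family standards whose Kd was known from biolayer interferometry. Each pool was mated in six replicate cultures.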

Each variant is given by its three heavy chain CDRs, as the data file delimits them; those of the parent are GFTLNSYGIS, VIYSDGRRTFYGDSVK, GRAAGTFDS. This list holds designs with at most six substitutions. Each Kd is an estimate from the mating assay, the geometric mean of the replicates in which the pair was seen; lower is stronger. "no signal" marks a missing value. The strain was present, yet no cells mated with the target were sequenced in any replicate, which points to weak or no binding. The list is sorted by this average, lowest first, undetected variants last. The range of this assay differs from that of the first round, and the authors advise against merging the two. Empty control strains, which show no peptide, gave a signal in 1% of pairings with all heavy chain designs; the median was 120 nM and 95% of these signals were weaker than 7.0 nM. No background was subtracted. In the paper, a design with two or fewer of six values counts as a poor binder.

* GFSLNEYGIS, VIYSDGRRTAYGDSVK, GRQAGTFDS -> 270 pM (6 of 6 replicates)
* GFSLNNYGIS, VIYSDGRRTFYSDSVK, GRTAGTFDS -> 540 pM (6 of 6 replicates)
* GFTLNDYGIS, VIYSDGRRTFYGDSVK, GRCAGTFDK -> 550 pM (1 of 6 replicates)
* GFDLNSYGIS, VIYSDGRRTFYVDSVK, GRTAGTFDS -> 850 pM (6 of 6 replicates)
* GFTLNEYGIS, VIYSDGRRTFYTDSVK, GRAAGTFDV -> 870 pM (6 of 6 replicates)
* GFSLNDYGIS, VIYSDGRRTFYGDSVK, GKTAGTFDS -> 910 pM (6 of 6 replicates)
* GFSLNEYGIS, VIYSDGRRTFYKDSVK, GRMAGTFDS -> 910 pM (6 of 6 replicates)
* GFTLRSYGIS, VIYSDGRRTFYGDSVK, GRAAGTFDS -> 1.1 nM (6 of 6 replicates)
* GFNLNTYGIS, VIYSDGRRTMYGDSVK, GRTAGTFDS -> 1.2 nM (6 of 6 replicates)
* GFELNSYGIS, VIYSDGRRTFYGDSVK, GQTAGTFDV -> 1.6 nM (6 of 6 replicates)
* GFSLNSYGIS, VIYSDGRRTFYHDSVK, GRVAGTFDS -> 1.6 nM (6 of 6 replicates)
* GFDLESYGIS, VIYSDGRRTFYSDSVK, GNAAGTFDS -> 2.5 nM (6 of 6 replicates)
* GFSLNSYGIS, VIYSDGYRTFYGDSVK, GREAGTFDS -> 3.7 nM (6 of 6 replicates)
* GFTLNEYGIS, VIYSDGRRTFYGDSVK, GEAAGTFDK -> 4.3 nM (6 of 6 replicates)
* GFDLNSYGIS, VIYSDGRRTFYIDQVK, GRTAGTFDS -> 4.8 nM (6 of 6 replicates)
* GFTLNSYGIS, VIYSDGHRTFYDDSVK, GQLAGTFDS -> 5.1 nM (6 of 6 replicates)
* GFSLNSYGIS, VIYSDGRRTFYGDSVK, GKAAGTFDL -> 6.5 nM (6 of 6 replicates)
* GFQLDKYGIS, VIYSDGRRTAMGDSVK, GRAAGTFDS -> 12 nM (3 of 6 replicates)
* GFTLNSYGIS, VIYSDGRRTFYGDSVK, GVIAGTFDS -> 14 nM (6 of 6 replicates)
* GFELNTYGIS, VIYSDGRRTAYGDSVK, GRTAGTFDS -> 15 nM (6 of 6 replicates)
* GFTLNSYGIS, VIYSDGRRTFYSDSVK, GKVGGTFDS -> 16 nM (5 of 6 replicates)
* GFTLNSYGIS, VIYSDGKRTFYGDSVK, GRTAGTFDT -> 18 nM (6 of 6 replicates)
* GFTLESYGIS, VIYSDGRRTFYHDSVK, GRAAGTFDT -> 230 nM (4 of 6 replicates)
* LFTLNEYGIS, VIYSDGRRTFYKDSVK, GRTAGTFDS -> 380 nM (4 of 6 replicates)
* GFTLNSYGIS, VIYSDGVRTAYGDSVK, GRAAGFFDS -> 630 nM (1 of 6 replicates)
* GFTLNSYGIS, VIYSDGLRTFYSDSVK, ANAAGTFSS -> 22 µM (1 of 6 replicates)
* KFTLNDYGIS, VIYSDGRRTFYGDSVK, GRAALTFIQ -> no signal (0 of 6 replicates)
* GFNLDEYGIS, VIYSDGRRTFYGDSVK, GTAAGLFDS -> no signal (0 of 6 replicates)
* GFTLNDYGIS, VIYSDGRRTFYSDSVK, GRAAGFFTS -> no signal (0 of 6 replicates)
* GNTLNSYGIS, VIYSDGRRTFYGDDVK, GERYGTFDS -> no signal (0 of 6 replicates)
* GFTLNQYGIS, VIYSDGRRTFYGDSVW, GRAAGFFDQ -> no signal (0 of 6 replicates)
* GFTLNSYGIS, VIYSDGRRTFYGDSVK, GQVTGTFDT -> no signal (0 of 6 replicates)
* GFTLNEYGIS, VIYSDKRRTFYADSVK, GRDAGTFDS -> no signal (0 of 6 replicates)
* GFTLNDYGIS, VIYSDGRRTFYGDSVK, GRAAGAFDS -> no signal (0 of 6 replicates)
* GFTLNSYGIS, VIYSDGMRTFNSDSLK, GRAGGTFDS -> no signal (0 of 6 replicates)
* GFTLNSYGIS, VIYADGRATFYGDSVK, GRAAGTPKS -> no signal (0 of 6 replicates)
* GFTLNSYGIS, VIGADGRRTFYGDNVK, GTAAGTFDS -> no signal (0 of 6 replicates)
* GFVLNSYGIS, VIYSDGRRTFYGDSVK, GRAAGTFDS -> no signal (0 of 6 replicates)

Values reported by Li et al. 2023, doi:10.1038/s41467-023-39022-2 (FLAb copy).